Laboratory results published in ChEMBL document CHEMBL1133436 (Bioorg Med Chem Lett, 2000).

Organism: Homo sapiens
Assay: Selectivity for alpha-2a to that of alpha2b determined by their binding affinity ratios

In order of falling Selectivity:
1. O=C(NCCCCCCNC(=O)[C@@H]1[C@H]2C[C@H]3c4[nH]c5ccccc5c4CCN3C[C@@H]2CC[C@@H]1O)[C@@H]1[C@H]2C[C@H]3c4[nH]c5ccccc5c4CCN3C[C@@H]2CC[C@@H]1O  123
2. O=C(NCCCCCNC(=O)[C@@H]1[C@H]2C[C@H]3c4[nH]c5ccccc5c4CCN3C[C@@H]2CC[C@@H]1O)[C@@H]1[C@H]2C[C@H]3c4[nH]c5ccccc5c4CCN3C[C@@H]2CC[C@@H]1O  77.6
3. O=C(NCCNC(=O)[C@@H]1[C@H]2C[C@H]3c4[nH]c5ccccc5c4CCN3C[C@@H]2CC[C@@H]1O)[C@@H]1[C@H]2C[C@H]3c4[nH]c5ccccc5c4CCN3C[C@@H]2CC[C@@H]1O  57.2
4. O=C(NCCCCCCCNC(=O)[C@@H]1[C@H]2C[C@H]3c4[nH]c5ccccc5c4CCN3C[C@@H]2CC[C@@H]1O)[C@@H]1[C@H]2C[C@H]3c4[nH]c5ccccc5c4CCN3C[C@@H]2CC[C@@H]1O  31.7
5. O=C(NCCCCNC(=O)[C@@H]1[C@H]2C[C@H]3c4[nH]c5ccccc5c4CCN3C[C@@H]2CC[C@@H]1O)[C@@H]1[C@H]2C[C@H]3c4[nH]c5ccccc5c4CCN3C[C@@H]2CC[C@@H]1O  12.3
